# The list shows a part of the results, in another mix than the full data. Active and inactive are the calls of the source.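 The calls were made as follows: active = GFP response relative to DMSO above a set limit, near the screen mean plus 3 SD (cut at about 150% in these data); inconclusive = Fewer than 70 cells measured for a yeast strain; inactive = the rest.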
# Assay: TOR pathway RTG branch CIT2 reporter changes – S. cerevisiae, GFP fusion, multiplex flow cytometry, MLPCN library, primary screen (AID 2029);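 also: ratio of well median GFP fluorescence to mean of DMSO wells on the plate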
# Conditions: S. cerevisiae CIT2-GFP strain, 3 h, at 10 µM, active compounds read high, 100 means same as DMSO wells
row,SMILES,GFP response vs DMSO
1,O=P(Nc1nccs1)(c1ccccc1)c1ccccc1,inactive: 104%
2,CC(C)C(=O)NC(Sc1ccccc1)C(Cl)(Cl)Cl (stereo unspecified),inactive: 87.3%
3,c1nnnn1CCn1cnnn1,inactive: 94.9%
4,O=[As](O)(c1ccccc1)c1ccc(O)cc1,inactive: 87.7%
5,O=[N+]([O-])c1ncn(CCn2cnc([N+](=O)[O-])n2)n1,inactive: 97%
6,CC(=O)NC(SC(=S)N(C)C)C(Cl)(Cl)Cl (stereo unspecified),inactive: 95.3%
7,O=[N+]([O-])c1ccc(O)c(/C=N/Nc2ccc([N+](=O)[O-])cc2[N+](=O)[O-])c1,inactive: 101%
8,O=C(OC1CN2CCC1CC2)c1cccc(Cl)c1 (stereo unspecified),inactive: 105%
9,Nc1ccc([As](=O)(O)c2ccc([N+](=O)[O-])cc2)cc1,inactive: 102%
10,C(Cc1nn[nH]n1)Cc1nn[nH]n1,inactive: 100%
11,CN(C)C1(CNC(=O)c2ccc(Cl)c(S(N)(=O)=O)c2)CCCCC1,inactive: 101%
12,O=P(Nc1ccccn1)(c1ccc(Br)cc1)c1ccc(Br)cc1,inactive: 98.1%
13,C[C@H]1OP(=O)(Oc2ccccc2)[C@H](O)[C@H](O)[C@H]1N=[N+]=[N-] (stereo partly specified),inactive: 93.9%
14,O=P(Nc1nc2ccccc2s1)(c1ccccc1)c1ccccc1,inactive: 120%
15,CCC(=O)N1C2C3N(C(=O)CC)C1C1N(C(=O)CC)C(C(N1C(=O)CC)N3C(=O)CC)N2C(=O)CC,inactive: 106%
16,O=C(OC1CN2CCC1CC2)c1ccccc1 (stereo unspecified),inactive: 95.8%
17,CC(=O)NC(SC(=S)N(CC(C)C)CC(C)C)C(Cl)(Cl)Cl (stereo unspecified),inactive: 85%
18,COC(=O)c1cc2c(s1)N=C(c1ccccc1)N(C)P2(=O)N1CCOCC1 (stereo unspecified),inactive: 115%
19,CN(C)C(=O)Oc1noc2ccccc12,inactive: 83.2%
20,Cc1ccccc1OP(=O)(Nc1ccccn1)Oc1ccccc1C,inactive: 99.5%
21,CC(NC(=O)COC(=O)C(O)(c1ccccc1)c1ccccc1)c1ccccc1 (stereo unspecified),inactive: 89.5%
22,CCOC(=O)NC(Sc1ccccc1)C(Cl)(Cl)Cl (stereo unspecified),inactive: 98%
23,Cc1ccc(NP(=O)(Oc2cccc(C)c2)Oc2cccc(C)c2)nc1,inactive: 97.7%
24,c1ccc(-c2nn[nH]n2)c(-c2nn[nH]n2)c1,inactive: 113%
25,O=C(NC1CCS(=O)(=O)C1)NP(=S)(Oc1ccccc1)Oc1ccccc1 (stereo unspecified),inactive: 87%
26,CCNC(=S)/N=C(\N)N[N+](=O)[O-],inactive: 95.6%

row,SMILES,GFP response vs DMSO
1,C[C@@H]1C=CCP(=O)(Oc2ccccc2)O1 (stereo partly specified),inactive: 77.2%
2,C[C@H]1OP(=O)(Oc2ccccc2)C[C@@H]2O[C@@H]21 (stereo partly specified),inactive: 97.6%
3,Cc1ccccc1CN(C)C(=O)COC(=O)C(O)(c1ccccc1)c1ccccc1,inactive: 95.8%
4,CC(=O)c1ccc(N2CC2c2ccncc2)cc1 (stereo unspecified),inactive: 99.2%
5,CC(=O)Nc1ccc(Oc2c([N+](=O)[O-])cc([N+](=O)[O-])cc2[N+](=O)[O-])cc1,inactive: 95.1%
6,CC(=O)Nc1ccc([As](=O)(O)O)c(O)c1,inactive: 92.7%
7,CCOc1ccc(C2=NCC(CBr)S2)cc1 (stereo unspecified),inactive: 102%
8,O=P1(Nc2nc3ccc(Cl)cc3s2)COc2ccccc2O1 (stereo unspecified),inactive: 97.5%
9,CC(C)(C)C(=O)NC(Sc1ccccc1)C(Cl)(Cl)Cl (stereo unspecified),inactive: 88.8%
10,Cc1c2non([O-])c-2c(C)[n+](=O)[n+]1[O-],inactive: 93.2%
11,O=C(NC(Sc1ccncn1)C(Cl)(Cl)Cl)c1ccccc1 (stereo unspecified),inactive: 102%
12,Oc1ccccc1CNc1ccccn1,inactive: 93.8%
13,CC(C)CC(=O)NC(Sc1ccc(Cl)cc1)C(Cl)(Cl)Cl (stereo unspecified),inactive: 96.7%
14,Nc1cc(N)c2nonc2c1[N+](=O)[O-],inactive: 93.9%
15,Cc1ccc(N/C(=N/P(=O)(N2CCOCC2)N2CCOCC2)N2CCOCC2)cc1,inactive: 97.3%
16,CN(C(=O)Cc1ccc(Cl)c(Cl)c1)[C@H]1CCCC[C@H]1N1CCCC1,inactive: 93.6%
17,NC(=O)c1cc([N+](=O)[O-])cc([N+](=O)[O-])c1N,inactive: 94.3%
18,Clc1ccc(Cl)c(NC2=NCC(CBr)S2)c1 (stereo unspecified),inactive: 105%
19,CN1CCCC(OC(=O)C(c2ccccc2)c2ccccc2)C1 (stereo unspecified),inactive: 91.3%
20,Cc1ccc(OP(=O)(Nc2nccs2)Oc2ccc(C)cc2)cc1,inactive: 98.2%
21,COc1ccccc1OP(=O)(Nc1ccc(C)cn1)Oc1ccccc1OC,inactive: 98.8%
22,O=[N+]([O-])c1cc([N+](=O)[O-])c(CCN2CCOCC2)c([N+](=O)[O-])c1,inactive: 104%
23,Nc1cccc2ccc([As](=O)(O)O)cc12,inactive: 94.8%
24,CCN(N=Nc1nonc1N)c1nonc1N,inactive: 103%
25,O=P(Nc1nc2ccc(Cl)cc2s1)(c1ccccc1)c1ccccc1,inactive: 92.5%
26,O=C(O)c1ccccc1[As](=O)(O)O,inactive: 102%

row,SMILES,GFP response vs DMSO
1,CC(=O)Nc1ccc([As](=O)(O)O)cc1,inactive: 98%
2,CN(C(=O)Cc1ccc(Cl)c(Cl)c1)[C@H]1CCCC[C@@H]1N1CCCC1,inactive: 86.8%
3,CCOP(=O)(Nc1ccccc1)OCC,inactive: 104%
4,Cc1cc(SC(NC(=O)c2ccc(F)cc2)C(Cl)(Cl)Cl)ncn1 (stereo unspecified),inactive: 95.5%
5,O=[N+]([O-])c1ncn(CCn2ncnc2[N+](=O)[O-])n1,inactive: 97.1%
6,CC(C)(C)C(=O)NC(Sc1ccncn1)C(Cl)(Cl)Cl (stereo unspecified),inactive: 88%
7,O=C(O)CNc1ccc([As](=O)(O)O)cc1,inactive: 92.8%
8,O=[N+]([O-])c1cccc(NC2=NCC(CBr)S2)c1 (stereo unspecified),inactive: 106%
9,O=C(Nc1cc([As](=O)(O)O)ccc1O)c1ccccc1,inactive: 71.2%
10,CCN(/C(=N/P(=O)(N1CCOCC1)N1CCOCC1)N1CCOCC1)c1ccc(OC)cc1,inactive: 95.4%
11,C[N+]1=C2C=CC=CC=C2SC12C([N+](=O)[O-])=CC([N+](=O)[O-])=C[C-]2[N+](=O)[O-] (stereo unspecified),inactive: 85.3%
12,Nc1ccc([As](=O)(O)c2ccc(N)cc2)cc1,inactive: 113%
13,CC1CCN(C(=O)Oc2c(Cl)cc(Cl)c3cccnc23)CC1,inactive: 104%
14,CN(C)C(=O)OCCc1n(C)cc[n+]1C,inactive: 107%
15,CC(C)=N/N=C(\N)N[N+](=O)[O-],inactive: 104%
16,COc1ccc(C2=NCC(CBr)S2)cc1 (stereo unspecified),inactive: 101%
17,O=[N+]([O-])c1cc([N+](=O)[O-])c(CCNc2ccccc2)c([N+](=O)[O-])c1,inactive: 105%
18,CCc1nc2c(n1)c1c(non1O)c1c2no[n+]1[O-],inactive: 108%
19,Cc1ccc(NP(=O)(Oc2ccccc2)Oc2ccccc2)nc1,inactive: 91.8%
20,CC(=O)N1C2C3N(C(C)=O)C1C1N(C(C)=O)C(C(N1C(C)=O)N3C(C)=O)N2C(C)=O,inactive: 106%
21,O=[N+]([O-])c1cccc2n[nH]nc12,inactive: 109%
22,O=C(OC1CN2CCC1CC2)c1cccc([N+](=O)[O-])c1 (stereo unspecified),inactive: 99%
23,CCOC(=O)c1ccc(NC(=O)C(C)(CCl)SC)cc1 (stereo unspecified),inactive: 86.2%
24,CCC(C)N(CC(C)C)C(=S)SC(NC(C)=O)C(Cl)(Cl)Cl (stereo unspecified),inactive: 93.3%
25,COP1(=S)c2c(C)nn(CCC#N)c2N=C(c2ccc(F)cc2)N1C (stereo unspecified),inactive: 111%
26,O=C(Nc1ccncc1[N+](=O)[O-])c1ccc([N+](=O)[O-])cc1[N+](=O)[O-],inactive: 92.4%

row,SMILES,GFP response vs DMSO
1,O=C(COc1ccccc1)OC1CN2CCC1CC2 (stereo unspecified),inactive: 88.9%
2,CCOC(=O)Nc1cccc([As](=O)(O)O)c1,inactive: 97.5%
3,Cc1cc(SC(NC=O)C(Cl)(Cl)Cl)ncn1 (stereo unspecified),inactive: 96.4%
4,O=[N+]([O-])c1ccc(Nc2ccc(Oc3ccc([N+](=O)[O-])cc3[N+](=O)[O-])cc2)c([N+](=O)[O-])c1,inactive: 99.5%
5,CCOC(=O)Nc1ccc([As](=O)(O)O)c(O)c1,inactive: 103%
6,Cc1cc(SC(NC(=O)c2ccccc2)C(Cl)(Cl)Cl)nc(C(C)C)n1 (stereo unspecified),inactive: 90.6%
7,CC(C)c1ccc(OP(=O)(Nc2ccccn2)Oc2ccccc2F)cc1 (stereo unspecified),inactive: 88.2%
8,O=[N+]([O-])c1cc([N+](=O)[O-])c(-c2ccn[nH]2)s1,inactive: 84.8%
9,CCN(CC)C(=S)SC(NC=O)C(Cl)(Cl)Cl (stereo unspecified),inactive: 88.6%
10,COc1cc(C(=O)NCC2(N3CCOCC3)CCCCC2)ccc1OCC(C)C,inactive: 101%
11,O=[As](O)(c1ccc(O)cc1)c1ccccc1O,inactive: 90.5%
12,C[As](=O)(O)c1cccc(C(=O)O)c1,inactive: 109%
13,Cc1ccc(OP(=O)(Nc2ccc([N+](=O)[O-])cn2)Oc2ccc(C)cc2)cc1,inactive: 98.9%
14,Cc1ccc2nc3c(c(C)c2c1)CC(C(Cl)Cl)S3 (stereo unspecified),inactive: 96.2%
15,COc1ccc(N/C(=N/P(=O)(N2CCOCC2)N2CCOCC2)N2CCOCC2)cc1,inactive: 98%
16,Cc1c2c(nc3ccccc13)SC(C(Cl)Cl)C2 (stereo unspecified),inactive: 96.5%
17,Cc1cc(=O)[nH]c(N[N+](=O)[O-])n1,inactive: 106%
18,O=C(OC1CN2CCC1CC2)C12CC3CC(CC(C3)C1)C2 (stereo unspecified),inactive: 103%
19,COc1cc(I)ccc1[As](=O)(O)O,inactive: 111%
20,COc1ccc2nc(NP(=O)(c3ccccc3)c3ccccc3)sc2c1,inactive: 100%
21,Nc1cccc2c([As](=O)(O)O)cccc12,inactive: 114%
22,Cc1ccc(NCCc2c([N+](=O)[O-])cc([N+](=O)[O-])cc2[N+](=O)[O-])cc1,inactive: 109%
23,CCCOP(=S)(Nc1nc(N)cc(=O)[nH]1)OCCC,inactive: 111%

# From PubChem BioAssay AID2029 (NMMLSC, 2009)
